Measurements: ChEMBL document CHEMBL2331319, “Development of N-Hydroxycinnamamide-Based Histone Deacetylase Inhibitors with Indole-Containing Cap Group” (ACS Med Chem Lett, 2013)

Sequences of proteins named here, by UniProt entry; tags and fusion partners are left off. A change or cut given only in a name is not applied to a line headed by its entry.
UniProt O15379: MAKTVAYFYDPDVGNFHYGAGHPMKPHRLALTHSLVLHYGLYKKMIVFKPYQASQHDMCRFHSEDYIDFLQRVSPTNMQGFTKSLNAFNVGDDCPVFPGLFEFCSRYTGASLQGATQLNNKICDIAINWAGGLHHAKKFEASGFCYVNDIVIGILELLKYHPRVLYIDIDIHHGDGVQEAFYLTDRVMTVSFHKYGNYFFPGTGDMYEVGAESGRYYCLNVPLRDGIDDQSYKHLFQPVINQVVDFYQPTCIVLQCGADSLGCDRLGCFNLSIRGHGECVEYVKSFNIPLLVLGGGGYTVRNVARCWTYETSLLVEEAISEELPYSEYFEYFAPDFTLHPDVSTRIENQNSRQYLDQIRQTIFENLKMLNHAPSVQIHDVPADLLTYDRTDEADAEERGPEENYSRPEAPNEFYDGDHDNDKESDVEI
UniProt Q92769, whole entry: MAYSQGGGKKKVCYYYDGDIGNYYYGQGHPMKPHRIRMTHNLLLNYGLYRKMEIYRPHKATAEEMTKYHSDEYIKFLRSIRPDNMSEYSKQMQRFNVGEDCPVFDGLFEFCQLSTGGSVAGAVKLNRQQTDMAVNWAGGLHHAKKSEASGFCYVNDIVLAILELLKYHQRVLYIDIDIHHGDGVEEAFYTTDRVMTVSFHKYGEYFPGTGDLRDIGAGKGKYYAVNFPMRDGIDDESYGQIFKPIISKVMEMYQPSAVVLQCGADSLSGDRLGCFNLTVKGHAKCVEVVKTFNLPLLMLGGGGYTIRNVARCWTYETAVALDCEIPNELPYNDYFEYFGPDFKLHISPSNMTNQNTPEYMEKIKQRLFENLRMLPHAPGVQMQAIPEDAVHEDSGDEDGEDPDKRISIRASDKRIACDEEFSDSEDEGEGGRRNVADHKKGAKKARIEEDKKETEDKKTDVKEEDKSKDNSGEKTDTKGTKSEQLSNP
UniProt Q13547, whole entry: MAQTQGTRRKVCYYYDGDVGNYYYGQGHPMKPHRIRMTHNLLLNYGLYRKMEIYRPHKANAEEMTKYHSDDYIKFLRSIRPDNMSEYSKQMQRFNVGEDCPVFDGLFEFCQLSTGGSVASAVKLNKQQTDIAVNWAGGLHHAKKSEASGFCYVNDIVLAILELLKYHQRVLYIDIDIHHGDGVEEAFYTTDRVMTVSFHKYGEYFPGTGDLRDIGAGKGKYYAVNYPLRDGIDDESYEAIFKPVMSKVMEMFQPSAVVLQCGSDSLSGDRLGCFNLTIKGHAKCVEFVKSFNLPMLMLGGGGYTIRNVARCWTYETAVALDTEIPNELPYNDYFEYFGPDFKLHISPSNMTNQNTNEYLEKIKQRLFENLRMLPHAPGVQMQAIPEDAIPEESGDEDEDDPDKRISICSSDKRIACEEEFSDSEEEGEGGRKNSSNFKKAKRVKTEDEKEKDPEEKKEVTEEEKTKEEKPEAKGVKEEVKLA

Experiments:
[1] = molecular target: Histone deacetylase 3 (Homo sapiens, UniProt O15379); assay: Inhibition of HDAC3 (unknown origin) using Boc-Lys(acetyl)-AMC as substrate preincubated with enzyme for 5 mins prior to substrate addition measured after 30 mins by fluorescence assay
[2] = molecular target: Histone deacetylase 2 (Homo sapiens, UniProt Q92769)
[3] = molecular target: Histone deacetylase 1 (Homo sapiens, UniProt Q13547); assay: Inhibition of HDAC1 (unknown origin) using Boc-Lys(acetyl)-AMC as substrate preincubated with enzyme for 5 mins prior to substrate addition measured after 30 mins by fluorescence assay

SMILES: CCCC(CCC)C(=O)N[C@H](COc1ccc(/C=C/C(=O)NO)cc1OC)Cc1c[nH]c2ccccc12
- IC50 [1]: 280 nM
- IC50 [2]: 1420 nM
- IC50 [3]: 390 nM
